Values quoted from earlier work in patent publication US9962452B2, “Soluble complexes of drug analogs and albumin” (Zhuhai Beihai Biotech Co., Ltd., priority 2013, dated 2018).

Settings: Prijovich et al. 2003

Substance: 9-Aminocamptothecin glucuronide
- blood half-life (active lactone ring form in blood): about 50 minutes
- lactone ring form at equilibrium in blood (blood): about 20%
